The text below walks through data of patent US9636374B2, “pH-sensitive polymer-drug conjugates for targeted delivery of therapeutics” (priority 2011, dated 2017).

The nature of data set [1]: Time-dependent release of BTZ from catechol polymers in buffered solutions. The format is physicochemical. The following applies: 10 mM PBS, 37° C. On the procedure: FIG. 3D. Time-dependent release of BTZ from the catechol polymers BPC and PC at pH 5.0, 6.5, and 7.4. The fraction of BTZ released was 30% from both polymers at pH 7.4 over 12 h, while 80% of the BTZ was released at pH 5.0 in the same period of time. Drug-polymer conjugates formed between 0.2 mM and 0.05 mM BPC or PC were used for all measurements of release in 10 mM PBS buffers at 37° C.
With confirmation of the cancer-targeting function of the biotin ligand, PEG polymers were synthesized to provide 4 catechol groups for conjugating BTZ, allowing multiple drug molecules to be loaded onto the polymeric carrier. Reference is made to Scheme 1, BPC and PC, above; and FIG. 3C.) Time-dependent release of BTZ from these catechol polymers was carried out in buffered solutions at pH 7.4, 6.5, and 5.0, mimicking the physiological pH in normal tissue and blood, the tumor extracellular environment, and subcellular endosome, respectively.

On to “Ac-[Lys(ε-NH-catechol)]4-Gly-PEG-biotin [BPC]”, for which, for the setting “aqueous solutions (pH 7.4), before conjugation of BTZ”, the “diameter of micelle-like structures” value is listed as 30˜50 nm. The size of microstructure (pH 7.4, after the conjugation of BTZ) is on record as 50˜80 nm. For the same substance, the “fraction of BTZ released” value in data set [1] (pH 5.0, over 12 h) was determined as 80%; in data set [1] (pH 7.4, over 12 h) it was 30%.
